Test results as given in patent US6339070B1, “Gene construct encoding a heterologous prodrug-activating enzyme and a cell targeting moiety” (Zeneca Limited, priority 1997, dated 2002).

Key:
[1] = system: non-transfected HCT116 cells; assay: In vitro cell growth inhibition (SRB), non-transfected HCT116; assay type: cell-based; conditions: read-out: IC50 (concentration required to inhibit cell growth by 50%); non-transfected HCT116, 1 hr exposure, three further days
[2] = system: HCT116 cells transfected with the antibody-CPG2 fusion protein gene; conditions: read-out: IC50 (concentration required to inhibit cell growth by 50%); transfected HCT116, 1 hr exposure, three further days

Oc1ccc(N(CCCl)CCCl)cc1
IC50 [1]: 1000 nM
IC50 [2]: 1000 nM
